Experimental data published in PubChem BioAssay AID440 (NMMLSC, 2006).
The list shows a part of the results, in another mix than the full data. The source made the active and inactive calls. Cut-off read from the data, not from the text of the source: active = inhibition above about 30%; inconclusive = no clear call, values can overlap the other calls; inactive = below that.

Chains of the proteins cited; added tags and fusions are not shown.
UniProt P21462, whole entry: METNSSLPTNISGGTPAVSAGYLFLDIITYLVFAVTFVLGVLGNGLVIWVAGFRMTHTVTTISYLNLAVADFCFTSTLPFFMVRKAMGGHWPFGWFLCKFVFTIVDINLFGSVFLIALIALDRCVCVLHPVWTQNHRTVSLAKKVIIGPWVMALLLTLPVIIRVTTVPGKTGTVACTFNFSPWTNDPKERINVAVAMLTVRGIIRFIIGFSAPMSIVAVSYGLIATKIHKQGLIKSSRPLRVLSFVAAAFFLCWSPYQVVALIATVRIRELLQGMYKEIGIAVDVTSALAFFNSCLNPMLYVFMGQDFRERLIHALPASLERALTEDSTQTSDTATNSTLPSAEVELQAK

What follows are compounds tested against fMet-Leu-Phe receptor (Homo sapiens) (UniProt P21462) (assay: small molecules displacing FPR fluorescent ligand – cell-based, FPRL1 counter-screen, flow cytometry, primary screen (AID 440;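 note: 0% = buffer wells and 100% = receptor blocker peptide wells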)). Settings: FPR-expressing cells, fluorescent ligand binding, stronger effect = higher value, concentration not given here.

| Structure (SMILES) | inhibition |
| --- | --- |
| Fc1ccccc1NC1CCN(Cc2ccccc2)CC1 | inactive: -3.6% |
| N#CC1(Nc2ccccc2)CCN(CCc2ccccc2)CC1 | inactive: -7.1% |
